Data from patent US6375962B2, “Barrier cream comprising hexamethylenetetramine or derivative thereof” (dated 2002).

How the values were obtained:
[1] = test system: human lymphocytes; settings: 10 mM pretreatment for 48 hours, 10 μM SM; 48 hours after exposure; cited from earlier work
[2] = Water solubility; settings: 20° C.; 1 g dissolves in 11 ml
[3] = Reactivity with radiolabelled sulphur mustard in THF, TLC autoradiography; settings: one hour after addition of 35S-SM
[4] = test system: SVK-14 human keratinocyte cells; settings: treatment without SM
[5] = test system: SVK-14 human keratinocyte cells

Compound: L-oxothiazolidine-4-carboxylate
- more viable than SM only treated cells [1]: 20%

Compound: 2 Pentafluorobenzyl Hexaminium Bromide
- Water solubility [2]: 90 mg/mL
- free H (SM) on TLC autoradiograph [3]: No free H is present

Compound: N[C@@H](CCC(=O)N[C@@H](CS)C(=O)NCC(=O)O)C(=O)O
- growth of the cells (crystal violet assay) compared to control [4]: did not significantly alter the growth
- increase in viability compared to SM control ([5]; 8 mM GSH singly, 72 hour time-point): 19.8%
- increase in viability compared to the SM control ([5]; 16 mM GSH, 72 hours, p<0.001): 20.6%
- cellular function measured by neutral red uptake ([5]; treatment without SM, over the course of the experiment): nor alter cellular function
